Biological target: human liver glycogen phosphorylase a (HLGPa) (Homo sapiens, UniProt P06737)
Test: Human liver glycogen phosphorylase a enzymatic activity assay (coupled, fluorescent resorufin readout, with and without 10 mM glucose)
Format: biochemical

Protein sequences, listed by entry. Tags and fused reporters are not part of them. Residues count along the entry.
UniProt P06737, 2-847 limits assumed: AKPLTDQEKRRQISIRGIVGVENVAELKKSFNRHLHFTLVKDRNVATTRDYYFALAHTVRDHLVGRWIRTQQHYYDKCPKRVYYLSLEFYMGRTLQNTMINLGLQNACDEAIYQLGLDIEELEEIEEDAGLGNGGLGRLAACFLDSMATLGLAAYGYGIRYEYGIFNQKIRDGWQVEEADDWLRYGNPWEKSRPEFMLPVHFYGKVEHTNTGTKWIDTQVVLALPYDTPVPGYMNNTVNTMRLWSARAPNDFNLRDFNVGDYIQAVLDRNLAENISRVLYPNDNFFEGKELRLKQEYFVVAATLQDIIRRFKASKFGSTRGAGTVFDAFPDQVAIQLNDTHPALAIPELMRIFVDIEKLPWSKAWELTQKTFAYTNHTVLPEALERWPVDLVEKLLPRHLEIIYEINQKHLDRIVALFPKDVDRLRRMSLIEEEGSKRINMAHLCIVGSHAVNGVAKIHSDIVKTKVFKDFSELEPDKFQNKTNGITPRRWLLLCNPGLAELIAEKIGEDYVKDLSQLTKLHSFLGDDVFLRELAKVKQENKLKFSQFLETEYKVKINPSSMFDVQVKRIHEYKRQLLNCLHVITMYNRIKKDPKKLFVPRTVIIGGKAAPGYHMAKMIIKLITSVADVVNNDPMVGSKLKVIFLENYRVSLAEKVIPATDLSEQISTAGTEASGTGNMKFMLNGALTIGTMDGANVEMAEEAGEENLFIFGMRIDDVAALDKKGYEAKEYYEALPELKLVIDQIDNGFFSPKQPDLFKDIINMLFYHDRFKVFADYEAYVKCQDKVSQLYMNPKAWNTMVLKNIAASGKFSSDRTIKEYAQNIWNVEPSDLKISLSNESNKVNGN

SMILES	IC50 (human liver glycogen phosphorylase a enzymatic activity assay) [nM]	IC50 (human liver glycogen phosphorylase a, table does not say whether with or without 10 mM glucose) [nM]
COc1ccc(-c2nc(C(=O)N[C@H](C(=O)O)C3CCCCC3)c(NC(=O)Nc3c(C)cc(C)cc3C)s2)cc1	700	
O=C(Nc1sc(-c2ccccc2)cc1C(=O)N[C@H](C(=O)O)C1CCCCC1)Nc1c(Cl)cc(Cl)cc1Cl		840
